Experiments:
[1] = test system: GCN5; conditions: cited from earlier work
[2] = molecular target: T1, human La antigen (Homo sapiens, UniProt P05455, T302N); assay: ALARM NMR; assay type: binding
T1 construct: amino acids 100–324 of the human La antigen (plus T302N mutation); 6xHis (N); 6xHis (C); host or cells: Escherichia coli Rosetta cells
T1 sequence (P05455 100-324 T302N): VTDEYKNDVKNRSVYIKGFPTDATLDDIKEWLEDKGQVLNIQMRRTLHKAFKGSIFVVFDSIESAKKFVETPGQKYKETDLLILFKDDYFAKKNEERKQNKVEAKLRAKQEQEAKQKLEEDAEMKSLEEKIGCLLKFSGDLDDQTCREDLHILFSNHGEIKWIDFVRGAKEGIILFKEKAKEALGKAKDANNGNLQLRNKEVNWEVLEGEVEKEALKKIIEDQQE
Source text: The gene encoding amino acids 100–324 of the human La antigen (plus T302N mutation) was cloned into pET28b + vector (Novagen) with both an N- and C-terminal 6xHis tag (addgene.org, plasmid ID 90209). The sequence identity of the ALARM NMR plasmid construct was verified by Sanger sequencing of the transgene region and next-generation sequencing of the whole plasmid.
Plasmid was transformed into Escherichia coli Rosetta cells (Novagen) and cultured in M9 minimal media. The La antigen was labeled by adding ^13C-labeled amino acid precursors ([3-^13C]-α-ketobutyrate and [3,3′-^13C]-α-ketoisovalerate sodium salts; Cambridge Isotope Laboratories; 250 mg L^−1 final concentrations) to culture medium 30 min before induction with IPTG (1 mM final concentration). Bacteria were collected after incubation at 25 °C for 8 h and washed with ice-cold phosphate-buffered saline (PBS). Washed cells were lysed by French press in ice-cold lysis buffer (50 mM Tris, pH 7.6, 300 mM NaCl, 10% glycerol (v/v), 5 mM β-mercaptoethanol (BME), 5 mM imidazole, 2 mM MgCl2, benzonase, and protease inhibitor cocktail), followed by an additional brief sonication step (3 × 15 s pulse sequence) on ice. […] The eluted La antigen product was verified by SDS–PAGE to have the correct molecular weight (calculated 32 kDa), and pooled pure fractions were then dialyzed (25 mM sodium phosphate, pH 7.0, 5 mM DTT) in 16 h cycles at 4 °C with gentle stirring, for three total buffer cycles. […]
For standard testing conditions, the [^1H-^13C]-HMQC spectra were acquired in 25 mM sodium phosphate buffer, pH 7.0, 10% D2O (v/v; CIL) ± 400 μM test compounds delivered from the aforementioned stock solutions, and ± 20 mM non-deuterated DTT. […] Data were recorded at 298 K on a Bruker UltraShield 700 MHz NMR spectrometer equipped with a Bruker 1.7 mm TCI Cryoprobe and Bruker SampleJet autosampler. […]
Data were analyzed in TopSpin™ 3.5 (Bruker). […]

Chains of the proteins cited; added tags and fusions are not shown.
UniProt Q92831, whole entry, species assumed: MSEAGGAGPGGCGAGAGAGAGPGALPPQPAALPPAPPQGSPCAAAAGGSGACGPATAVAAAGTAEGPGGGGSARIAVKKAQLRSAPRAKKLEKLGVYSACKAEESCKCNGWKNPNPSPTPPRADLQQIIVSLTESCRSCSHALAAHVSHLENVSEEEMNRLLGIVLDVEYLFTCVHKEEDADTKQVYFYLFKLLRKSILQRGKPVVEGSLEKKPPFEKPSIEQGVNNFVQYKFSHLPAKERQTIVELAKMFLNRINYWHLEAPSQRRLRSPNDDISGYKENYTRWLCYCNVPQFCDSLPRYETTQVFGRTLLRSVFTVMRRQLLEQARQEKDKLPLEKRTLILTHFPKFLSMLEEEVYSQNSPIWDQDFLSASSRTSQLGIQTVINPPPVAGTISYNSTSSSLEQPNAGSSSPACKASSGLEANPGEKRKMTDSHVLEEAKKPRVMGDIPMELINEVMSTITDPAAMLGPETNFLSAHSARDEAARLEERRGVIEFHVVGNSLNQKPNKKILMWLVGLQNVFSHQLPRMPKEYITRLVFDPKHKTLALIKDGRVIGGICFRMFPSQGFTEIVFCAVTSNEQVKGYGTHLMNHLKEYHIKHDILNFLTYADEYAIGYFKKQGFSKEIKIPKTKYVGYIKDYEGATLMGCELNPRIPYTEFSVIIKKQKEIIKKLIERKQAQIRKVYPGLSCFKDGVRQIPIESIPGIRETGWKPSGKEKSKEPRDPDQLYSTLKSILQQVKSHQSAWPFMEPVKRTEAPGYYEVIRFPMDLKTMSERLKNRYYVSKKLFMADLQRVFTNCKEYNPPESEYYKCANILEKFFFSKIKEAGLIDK

[3] = molecular target: T2, PCAF (Homo sapiens, UniProt Q92831); conditions: read-out: IC50 (µM), PCAF; cited from earlier work
T2 construct: Reaction Biology Corporation (assays run by this contract lab)

[4] = test system: five tested HATs; assay: HAT selectivity panel with DTT (Reaction Biology); assay type: biochemical
Description: (§1) Selectivity profiles vs. HATs, HDACs, SIRTs, HMTs, proteases, kinases, and phosphatases were performed by Reaction Biology Corporation (Malvern, PA; Fig. 3 and Supplementary Fig. 3). Percent activity was normalized to DMSO-only controls. Reference control compounds were included in each assay.
Relevant reaction procedures for each target class are briefly summarized (see reactionbiology.com for additional details). HATs: reaction buffer 50 mM Tris–HCl, pH 8.0, 50 mM NaCl, 0.1 mM EDTA, ± 1 mM DTT, 1 mM PMSF, 1% DMSO; substrate [^3H]-acetyl-CoA; reaction time 1 h; end-point measurement. HDACs: reaction buffer 50 mM Tris–HCl, pH 8.0, 137 mM NaCl, 2.7 mM KCl, 1 mM MgCl2, 1 mg mL^−1 BSA, 1% DMSO; fluorogenic substrate p53 residues 379–382 (RHKK(Ac)-AMC) (HDAC1/2/3/6/10), fluorogenic substrate p53 residues 379–382 (RHK(Ac)K(Ac)AMC) (HDAC8); fluorogenic substrate trifluoroacetyl lysine (HDAC4/5/7/9/11); pre-incubation included; reaction time 1–2 h; trichostatin A or TMP269 quencher; fluorescent readout λexcite = 360 nm, λemission = 460 nm; end-point measurement. […]

[5] = test system: panel of proteases, kinases, and phosphatases; assay: Pilot selectivity panel (Reaction Biology); assay type: biochemical
Description: as §1
(§2) Relevant reaction procedures for each target class are briefly summarized (see reactionbiology.com for additional details). HATs: reaction buffer 50 mM Tris–HCl, pH 8.0, 50 mM NaCl, 0.1 mM EDTA, ± 1 mM DTT, 1 mM PMSF, 1% DMSO; substrate [^3H]-acetyl-CoA; reaction time 1 h; end-point measurement. […] HMTs: reaction buffer 50 mM Tris–HCl, pH 8.0, 0.01% Brij35, 1 mM EDTA, 1 mM DTT, 1 mM PMSF, 1% DMSO (EZH2); reaction buffer 50 mM Tris–HCl, pH 7.5, 5 mM EDTA, 0.01% Brij35, 5 mM DTT, 0.1 mM PMSF, 5% glycerol, 1% DMSO; 50 mM Tris–HCl, pH 8.5, 5 mM MgCl2, 50 mM NaCl, 0.01 Brij35, 1 mM DTT, 1% DMSO (G9a); methyl donor 1 μM S-Adenosyl-L-[methyl-^3H]-methionine; substrate 5 μM histone proteins or 0.05 mg mL^−1 nucleosomes; pre-incubation time 10–15 min; reaction time 0.5–1 h; end-point measurement. Caspases: reaction buffer 50 mM HEPES, pH 7.4, 1 M citrate, 100 mM NaCl, 0.01% CHAPS, 0.1 mM EDTA, 10 mM DTT; fluorogenic peptide substrate; pre-incubation time 10 min; reaction time 2 h; time-course measurement. […]

[6] = molecular target: T2, PCAF; assay: PCAF activity in presence and absence of DTT; assay type: biochemical
Description: as §1, §2

[7] = test system: Tip60; conditions: cited from earlier work

## c1cc(SSc2ccns2)sn1 [Compound 2, NU-9056]
[1]
  IC50: > 100 µM
[2]
  ALARM NMR interpretation: Thiol-reactive
  ALARM NMR, (+) DTT: Negative
  ALARM NMR, (-) DTT: Positive
[3]
  IC50: 33 µM
[4]
  activity vs. the five tested HATs: minimal activity
[5]
  activity vs. most of the targets tested: little activity
[6]
  inhibition of PCAF in the absence of DTT compared with DTT present: notable exceptions
[7]
  IC50: ~2 µM

— PMC5688144, “Assay interference and off-target liabilities of reported histone acetyltransferase inhibitors” (Nature Communications, 2017)
